Assay results reported in patent publication US20210246128A1, “BICYCLE TOPOISOMERASE I INHIBITING COMPOUNDS, PROCESS FOR PREPARATION AND USE THEREOF” (Council of Scientific & Industrial Research, priority 2018, published 2021).

Biological target: T1, recombinant human TopI (HTopI) (Homo sapiens, UniProt P11387)
T1 sequence (P11387 1-765): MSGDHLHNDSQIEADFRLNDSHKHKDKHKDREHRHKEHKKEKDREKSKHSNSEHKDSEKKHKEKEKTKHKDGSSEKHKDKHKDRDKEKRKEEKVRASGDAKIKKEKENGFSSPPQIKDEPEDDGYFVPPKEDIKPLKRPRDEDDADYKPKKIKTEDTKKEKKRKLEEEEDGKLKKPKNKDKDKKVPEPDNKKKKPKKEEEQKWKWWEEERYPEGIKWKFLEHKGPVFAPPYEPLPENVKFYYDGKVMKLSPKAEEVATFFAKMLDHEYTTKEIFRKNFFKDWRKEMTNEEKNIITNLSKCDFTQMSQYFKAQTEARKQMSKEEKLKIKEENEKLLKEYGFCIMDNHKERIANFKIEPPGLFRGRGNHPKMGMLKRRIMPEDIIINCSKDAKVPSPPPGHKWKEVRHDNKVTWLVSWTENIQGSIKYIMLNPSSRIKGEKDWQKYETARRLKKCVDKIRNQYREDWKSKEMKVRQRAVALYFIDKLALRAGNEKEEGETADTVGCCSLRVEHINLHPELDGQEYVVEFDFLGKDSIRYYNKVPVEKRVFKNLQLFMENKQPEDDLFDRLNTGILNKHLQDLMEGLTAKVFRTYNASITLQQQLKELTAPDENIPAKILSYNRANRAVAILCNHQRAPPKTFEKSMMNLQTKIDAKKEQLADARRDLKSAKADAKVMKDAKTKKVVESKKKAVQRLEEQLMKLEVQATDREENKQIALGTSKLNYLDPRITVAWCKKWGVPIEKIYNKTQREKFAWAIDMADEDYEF
Experiment: Gel based plasmid DNA relaxation assay with recombinant TopI (in vitro)
Assay type: biochemical
Experimental: Human ToPI Inhibition in Plasmid DNA Relaxation Assays with Recombinant TopI (In Vitro) or MCF7 Cell Lysates (Ex Vivo)
Relaxation of supercoiled pBSSK(^+) DNA with recombinant human TopI (HTopI) at a molar ratio of 3:1 at 37° C. for 30 minutes was performed

Structure (SMILES): COc1ccc(-c2ccc3ncc(-c4nnco4)c(NCCCn4ccnc4)c3c2)cc1 [Compound 18, N-(3-(1H-imidazol-1-yl)propyl)-6-(4-methoxyphenyl)-3-(1,3,4-oxadiazol-2-yl)quinolin-4-amine]
- inhibition at 0.1 µM (0.1 μM, recombinant TopI and compound added simultaneously): 85 to 90%
- IC50 (read-out: IC50 of TopI inhibition): 29 nM
